Laboratory results taken from US20030069295A1, “Use of histamine H3 receptor inverse agonists for the control of appetite and treatment of obesity” (Gliatech, Inc., priority 2001, published 2003).

The chains behind the UniProt entries cited, without tags or fusion partners. Where a name states a change or a piece, a line headed by the entry shows the natural chain unless it says otherwise.
UniProt Q9QYN8: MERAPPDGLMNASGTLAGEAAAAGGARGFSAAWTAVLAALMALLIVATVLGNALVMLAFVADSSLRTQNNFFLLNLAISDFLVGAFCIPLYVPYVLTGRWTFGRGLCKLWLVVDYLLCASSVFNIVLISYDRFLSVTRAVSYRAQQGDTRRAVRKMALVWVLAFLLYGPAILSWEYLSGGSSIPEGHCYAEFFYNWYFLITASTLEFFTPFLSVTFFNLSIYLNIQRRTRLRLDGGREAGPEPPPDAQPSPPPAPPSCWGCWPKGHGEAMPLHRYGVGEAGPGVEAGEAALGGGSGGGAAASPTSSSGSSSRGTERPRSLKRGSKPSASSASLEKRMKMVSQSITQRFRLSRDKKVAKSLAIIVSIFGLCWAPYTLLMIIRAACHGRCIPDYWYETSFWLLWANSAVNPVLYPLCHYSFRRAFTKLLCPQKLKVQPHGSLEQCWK

Target: T1, Histamine H3 receptor (Rattus norvegicus, UniProt Q9QYN8)
T1 construct: The cerebral cortical tissues were harvested and frozen on dry ice; from tissue; host or cells: cerebral cortex membranes of male Sprague-Dawley rats
Assay: Histamine H3 receptor binding analysis, [3H]-Nα-methylhistamine competition in rat cerebral cortical membranes, with and without GTPγS

O=C(CCCCC1CCCCC1)N1CCC(c2c[nH]cn2)CC1 [Compound 5, 4-(N-(5-cyclohexylpentan-1-one-1-yl)piperidin-4-yl)imidazole]
Ki (GTPγS-treated receptor preparation (G-protein uncoupled)): 0.0367 µM | Ki Ratio (−/+) (Ki without GTPγS / Ki with GTPγS): 3.5 | Ki (untreated receptor preparation (mixture of coupled and uncoupled H3 receptors)): 0.129 µM
